Screening data deposited in PubChem by National Center for Advancing Translational Sciences (NCATS).
A549 tox = kills or reduces viability of A549 cells in Nrf2 counter-screen; A549 ARE-Fluc cells, CellTiter-Fluor viability, 18-24 h; Potency, µM (highest dose often 46 µM), without a hit: at the highest dose activity change, negative = cytotoxicity, actives largely listed as inhibitors; 390,000 tested, 0.16% active; AID 504648; further: potency means the concentration at half of the fitted maximal effect; on the % scale 0 is the no-effect control and ±100 the full control effect
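Cytotoxicity counterscreen: CellTiter-Fluor fluorescence was measured in A549 ARE_Fluc cells after 18-24 h of compound exposure in a concentration series. The subsequent BugLite luminescent read reports ARE-luciferase activity.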
TCR activator = T cell receptor activation; primary human leukocytes, anti-CD3, IL-2 HTRF, 48 h; Potency, µM (doses to about 9.22 µM), inactives show at the top dose activation of IL-2 secretion, usual class: activators; 330,000 tested, under 10 active; AID 504894; further: % of control where 0% means no effect
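Primary human leukocytes incubated 48 hr with anti-CD3 beads plus compound, without co-stimulation. Secreted IL-2 measured by HTRF (europium cryptate/d2 anti-IL-2 pair, 320 nm excitation, 665 nm emission).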
Nrf2 ARE act = activates Nrf2 signaling | 410,000 tested, 0.31% active | AREc32 ARE-luciferase reporter (MCF7-derived line), luminescence, 24 h | Potency, µM (doses to about 46.1 µM), for inactives: top-dose activation, most hits filed as activators; further: potency means the concentration at half of the fitted maximal effect; % of control where 0% means no effect; nearly all actives have a fitted effect of over 65% in size
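Cells of the AREc32 ARE-luciferase line are plated in OPTI-MEM containing 5% FBS and left overnight at 37 deg C. Compounds are pinned in, incubation continues 24 hr, and firefly luciferase signal is then measured.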
miR-21 reporter = raises the signal of a miR-21 reporter | Potency, µM (doses to about 38.3 µM), for inactives: top-dose reporter change, positive = more light | HeLa miR-21 FLuc reporter, luciferase, 48 h | AID 2288 | 340,000 tested, under 10 active; active = well fitted rising curve with a large enough effect; inconclusive = small, poorly fitted or top-dose-only effect; inactive = no such curve, though single readings can be large or run the other way;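 also: % of control where 0% means no effect; miR-21 action dims this reporter so a rising signal means less miR-21 action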
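HeLa cells stably expressing CMV-driven firefly luciferase with a downstream miR-21 binding sequence, endogenously expressing miR-21, were treated with titrations (up to about 40uM final) for 48 hours at 37 degree Celsius. Luciferase luminescence was read after lysis.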
ClpP mod = qHTS Assay for Activators of ClpP | Potency, µM (titrated, usually from 57.5 µM), for the others: at the highest dose activity change, negative = active | purified B. subtilis ClpP, FRET peptide cleavage, 20 min | 340,000 tested, 1.9% active | ATP-dependent Clp protease proteolytic subunit (Bacillus subtilis (strain 168)), P80244; active means well fitted falling curve with a large enough effect; inconclusive means small, poorly fitted or top-dose-only effect; inactive means no such curve, though single readings can be large or run the other way; further: potency means the concentration at half of the fitted maximal effect; the source files actives as falling curves though it sought activators and does not explain the sign; nearly all actives have a fitted effect of over 65% in size
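ClpP 10 microg/mL final, pH 8 Tris/KCl buffer with BSA, glycerol, Tween-20; compound pinned in; FRET-FV substrate; RT 20 min; Ex320/Em430; ΔFRET vs ADEP 5.8 microM, DMSO, no enzyme.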
Nrf2 inh = inhibitors of Nrf2 signaling; A549 ARE-Fluc reporter, luciferase luminescence, 18-24 h; Potency, µM (series often up to 46 µM), without a hit: at the highest dose activity change, negative = inhibition, usual class: inhibitors; 360,000 tested, 2.1% active; further: potency means the concentration at half of the fitted maximal effect; on the % scale 0 is the no-effect control and ±100 the full control effect; nearly all actives have a fitted effect of over 60% in size
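Two sequential reads on A549 ARE_Fluc cells exposed to compound for 18-24 h: a CellTiter-Fluor fluorescence read for viability, then a luciferase luminescence read for Nrf2/ARE activity.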
An asterisk follows results filed as active; ? = inconclusive; · = no result; [ ] = remark or other dose. Rows were chosen to be rich in hits. Some 3.7% of all compounds tested hit in one or more screens of this group. Unless noted, the call rests on the fitted dose curve; in most records, active means well fitted curve in the direction sought with a large enough effect; inconclusive means small, poorly fitted or top-dose-only effect, or another doubt; inactive means no such curve, though single readings can be large; an effect the other way counts as inactive or inconclusive.

SMILES	A549 tox	TCR activator	Nrf2 ARE act	miR-21 reporter	ClpP mod	Nrf2 inh
COc1cccc(-c2nc(CS(=O)(=O)CC(=O)NC3CCCC3)c(C)o2)c1	-12%	2%	-2%	-1%	-7%	21µM*
CCc1cc2c(cc3c(=O)n(CC(=O)NC4CCC(C)CC4)nc(CC)n32)s1 (configuration not stated)	1%	·	8%	-32%	1%	?
CCN(C(=O)Cn1nnc2sc(-c3ccccc3)cc2c1=O)c1cccc(C)c1	11%	·	4.5µM*	0%	-18%	26%
O=C1CCCC2=C1C1(CCS(=O)(=O)C1)N=C(Nc1nc3ccccc3o1)N2 (configuration not stated)	1%	·	·	·	·	?
Cc1ccc(CNC(=O)C(=O)NCC2OCCN2S(=O)(=O)c2ccc(C)cc2)cc1 (configuration not stated)	12%	8%	-1%	0%	-4%	-12%
Cc1ccc(CNC(=O)C(=O)NCC2OCCN2S(=O)(=O)c2ccc3c(c2)OCCO3)cc1 (configuration not stated)	8%	1%	0%	0%	-2%	10µM*
O=C(NCc1ccccc1)C(=O)NCC1OCCN1S(=O)(=O)c1ccc2c(c1)OCCO2 (configuration not stated)	2%	0%	0%	-2%	1%	0%
Cc1ccc(CNC(=O)C(=O)NCC2OCCN2S(=O)(=O)c2ccc(Br)cc2)cc1 (configuration not stated)	-4%	7%	5%	15%	-4%	16µM*
COc1ccc(CCNC(=O)C(=O)NCC2OCCN2S(=O)(=O)c2ccc3c(c2)OCCO3)cc1OC (configuration not stated)	-6%	0%	0%	-8%	1%	?
COc1ccc(CCNC(=O)C(=O)NCC2OCCN2S(=O)(=O)c2ccc3c(c2)OCCO3)cc1 (configuration not stated)	-22%	5%	0%	-1%	-2%	9.2µM*
CC1CCN(S(=O)(=O)c2ccc(NC(=O)C3CCCCC3C(=O)O)cc2)CC1 (configuration not stated)	1%	3%	-1%	·	·	-9%
CCOc1ccc(NC(=O)COC(=O)C2COc3ccccc3O2)cc1 (configuration not stated)	·	·	-1%	·	3%	·
O=C(N/N=C/c1cccnc1)c1cc(-c2cccs2)nc2ccccc12	2%	2%[46.1 µM]	0%	17%	25µM*	-23%
O=C(NCc1ccco1)c1nc2ccccc2s1	0%[1.84 µM]	·	13µM*	-29%	-2%	?
O=C(N/N=C/c1ccc2ncccc2c1)c1cc(-c2cccs2)nc2ccccc12	-1%	1%	0%	-1%	3%	7%
O=C(NCc1ccccc1)c1nc2ccccc2s1	-4%	-9%	0%	-15%	0%	8%
CS(=O)(=O)N1CCN(C(=O)c2cc(-c3cccs3)nc3ccccc23)CC1	-10%	-7%	2%	12%	11µM*	·
C/C(=N\NC(=O)c1cc(-c2cccnc2)nc2ccccc12)c1ccc(O)cc1O	?	5%[46.1 µM]	0%	22%	-3%	15µM*
O=C(Nc1ccc(F)cc1)C(c1cccc(F)c1)N1CCN(c2cccc(C(F)(F)F)n2)CC1 (configuration not stated)	·	·	·	·	-22%	·
O=C1CCc2cc(S(=O)(=O)Nc3ccc(Cl)c(Cl)c3)c(F)cc2N1	5%	·	·	·	·	0%
O=C(c1cc2nc(-c3cccs3)cc(C(F)(F)F)n2n1)N1CCCc2ccccc21	-17%	1%	0%	-5%	-6%	18µM*
O=C(NCc1ccco1)c1cc2nc(-c3cccs3)cc(C(F)(F)F)n2n1	15%	·	4%	-13%	35µM*	?
O=C(NCc1ccco1)c1cc(-c2cccs2)nc2ccccc12	15%	1%[46.1 µM]	5%[9.22 µM]	21%	25µM*	-8%
Cc1ccc(-c2cc(C(=O)NCc3ccco3)c3ccccc3n2)s1	12%	2%	?	-10%	32µM*	·
Cc1cccc(-c2nc(SCc3cc(=O)c4c(C)cc(C)cc4[nH]3)n[nH]2)c1	?	·	-1%	9%	-1%	·

The listing continues:
SMILES	A549 tox	TCR activator	Nrf2 ARE act	miR-21 reporter	ClpP mod	Nrf2 inh
COC(=O)c1sccc1S(=O)(=O)N(CC(=O)NCc1ccccc1)c1ccccc1	-4%	·	-1%	1%	-2%	-26%
CCOC(=O)c1[nH]c(C)c(CCC(=O)Nc2cccc(SC)c2)c1C	-4%	·	1%	3%	-3%	·
O=C(NN1CCOCC1)c1cc(-c2cccs2)nc2ccccc12	-16%	0%[46.1 µM]	2%	-5%	10µM*	2%
COC(=O)c1sccc1NC(=O)Nc1ccc(C)c(C)c1	-12%	0%	?	-52%	-14%	?
CNS(=O)(=O)c1ccc(NC(=O)c2csc(C)c2)cc1	7%	-7%	27%	-3%	-1%	?
COC(=O)c1sccc1NC(=O)c1cccc(Cl)c1	4%	-7%	8.9µM*	·	-23%	5%
CSc1ccccc1NC(=O)c1csc(C)c1	-3%	-5%	?	-29%	-1%	15%
CCc1ccc(NC(=O)Nc2ccsc2C(=O)OC)cc1	-17%	14%	13µM*	-39%	-15%	?
Cc1cc(C(=O)Nc2ccccc2[N+](=O)[O-])cs1	-6%	8%	11µM*	20%	2%	?
Cc1cc(C(=O)Nc2ccc(Br)cc2)cs1	1%	3%	11µM*	-5%	1%	?
COC(=O)c1sccc1NC(=O)c1c(Cl)cccc1Cl	0%	-3%	4%	3%	-4%	?
CC(C)(C)NS(=O)(=O)c1ccc(NC(=S)NC(=O)C2CC2)cc1	-7%	3%	0%	8%	1%	?
COC(=O)c1sccc1NC(=O)c1ccc(C)cc1	9%	0%	32%	-1%	·	?
COC(=O)c1sccc1NC(=O)c1csc(C)c1	?	6%	5µM*	-4%	-11%	·
COc1cc(/C=C/c2cc(OC(C)=O)c3ccccc3n2)c(OC(C)=O)c([N+](=O)[O-])c1	15µM*	6%	3%	0%	3%	?
COc1cc(/C=C/c2ccc3c([N+](=O)[O-])cccc3n2)ccc1OCC(=O)O	-11%	-4%	-1%	-3%	0%	0%
O=C(NCC1CCCO1)C(c1cccs1)N(Cc1ccccc1Cl)C(=O)c1ccc(-c2ccccc2)[nH]1 (configuration not stated)	-6%	-1%[46.1 µM]	0%	10%	32µM*	23µM*
